Earlier results, collected in article PMC7369641, “Synthesis of SMT022357 enantiomers and in vivo evaluation in a Duchenne muscular dystrophy mouse model” (Tetrahedron, 2020).

Test system: utrophin protein in EDL muscle of mdx mice
Details: 2-week-old mdx mice, orally dosed daily with 30 mg/kg for 5 weeks; cited from earlier work

## CCP(=O)(OC)c1ccc2oc(-c3cccc(C(F)(F)F)c3)nc2c1 (racemic) [(±)-4, Methyl ethyl(2-(3-(trifluoromethyl)phenyl)benzo[d]oxazol-5-yl)phosphinate]
  Utrophin expression in skeletal and cardiac muscles: increased utrophin expression in skeletal and cardiac muscles
